Source: publication PMC12638251, “Uridine-sensitized screening identifies demethoxy-coenzyme Q and NUDT5 as regulators of nucleotide synthesis” (Nature Metabolism, 2025)

Assays:
[1] = molecular target: PPAT (endogenous, human) (human (endogenous in 293T, K562 and other human cell lines)) (UniProt Q06203); test: native gel or EMSA; parallel native PAGE (4–16% gel) of human cell lysates in 1× Native Buffer with 1% digitonin, immunoblot for NUDT5 and PPAT; K562 (wild type, NUDT5 KO clones, KO clones with cDNA complementation) and other cell lines; untreated
[2] = molecular target: NUDT5 (endogenous, human) (human (endogenous in 293T, K562, HeLa and other human cell lines)) (UniProt Q9UKK9); test: as above

percent of NUDT5 associated to PPAT [1] [%] | stoichiometry N [2] | Substance
33 |  | NUDT5 (endogenous, human) (from UniProt Q9UKK9 1-219) (enzyme; other documents disagree on this pair)
 | 2 | NUDT5 (endogenous, human) (from UniProt Q9UKK9 1-219) (enzyme)
